Apparent affinities of Ab-14 variants for a coronavirus HR2 peptide

Antigen: PDVDLGDISGINAS, a 14-residue peptide of the SARS-CoV-2 spike HR2 region.

Parent scFv Ab-14: VH joined to VL by the linker GGGGSGGGGSGGGGS. Changes lie in the light chain CDRs alone.
VH: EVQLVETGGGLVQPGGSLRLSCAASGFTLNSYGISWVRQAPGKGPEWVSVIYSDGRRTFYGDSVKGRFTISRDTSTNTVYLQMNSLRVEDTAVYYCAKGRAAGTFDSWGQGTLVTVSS
VL: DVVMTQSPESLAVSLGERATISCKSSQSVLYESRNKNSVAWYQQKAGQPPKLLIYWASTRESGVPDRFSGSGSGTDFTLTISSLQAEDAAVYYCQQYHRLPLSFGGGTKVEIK

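The parent was found by panning a naive human phage display library on the peptide. The variants were designed computationally from a first round of random CDR variants and then made and measured. Their group label is 14L_En_HC (En: ensemble of fine-tuned language models; HC: hill climbing; a sequence that several methods proposed may carry one label only). Affinity was read by AlphaSeq, a pooled yeast mating assay with surface-displayed partners. The frequency of each diploid, read from paired DNA barcodes, reflects how well the two displayed proteins bind. A regression on co-assayed BCL2-family reference pairs converts the normalised counts of each replicate to an apparent Kd. Mating was done six times.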

Each variant is given by its three light chain CDRs, as the data file delimits them; those of the parent are KSSQSVLYESRNKNSVA, WASTRES, QQYHRLPLS.
Affinities are written as log10 Kd with Kd in nM; a lower number is a better binder.
A mean of the replicates is given; it leaves out those without a signal.
A pair that was not seen in that replicate is written "ND"; this usually means weak binding, but a binder can also be missed.
Background: pairings of all light chain designs with three empty control strains gave a value in 4% of cases (median 2.64, 5th percentile 1.59). Values in that range, when seen in few replicates, are hard to tell from nonspecific mating. Also given: how often the same scFv was detected with the empty control strains.

NFSQMVLTGSTLKNSVA | HASTRNE | QQYHRLPLI: 1.27, 0.66, 0.78, 1.19, 0.54, 1.01 (mean 0.91; controls 0 of 18).
KLMQSVNYGSRALNSVA | QMETRED | QQYHRLPLS: 0.62, 0.64, 0.62, 0.51, 0.45, 0.76 (mean 0.60; controls 1 of 18).
KITQMVTGEMHNKNSIA | QMTTREG | QQYHRLPLS: 0.30, 0.57, 0.55, 0.17, 0.67, 0.61 (mean 0.48; controls 1 of 18).
KISTSALYESINKNSVA | ELTTRGS | QQYERLPLS: 0.85, 1.30, 1.23, 1.32, 0.73, 1.59 (mean 1.17; controls 0 of 18).
KIGHGLTTESRNNNSVA | QTETRVS | QHYHRLPLS: 0.60, 0.37, 0.73, 0.91, 0.58, 0.96 (mean 0.69; controls 1 of 18).
ILSQSVLMGMHTKNSVA | QATMRFN | QQYHRLPLM: ND, 1.50, 2.49, 1.84, ND, 2.03 (mean 1.97; controls 0 of 18).
SISSLTLYESVNKNNVA | EMSTRPS | QSYHRLPLS: 0.39, 0.35, -0.15, 0.33, 0.18, 0.50 (mean 0.26; controls 2 of 18).
MISDMGLHDSRIQNSVA | NNSTREA | QQYDRLPLA: 2.33, ND, ND, ND, ND, 2.67 (mean 2.50; controls 1 of 18).
KLLQTVMNGRHNRNNVA | HMTMRED | QQYFRLPLS: 2.25, 1.93, ND, 2.43, ND, 3.29 (mean 2.47; controls 1 of 18).
KLGQSVAMTSRNTNNVA | DLNERER | QQYHRLPLS: 0.14, -0.20, -0.08, 0.12, -0.24, -0.06 (mean -0.05; controls 0 of 18).
NFSQMVSTGMTLRNSVA | HAETRFN | QQYHRLPLI: 1.30, 1.28, 1.03, 0.99, 1.35, 0.89 (mean 1.14; controls 2 of 18).
TLTQVQGMESHNKDNVA | DLSTRGS | QQYDRLPLS: 0.35, 0.32, 0.42, 0.20, 0.45, 0.44 (mean 0.36; controls 1 of 18).
KIGGVTNGLSRNKNSVA | EQSTRES | QQYNRLPLS: 0.52, -0.26, -0.36, -0.29, -0.17, 0.14 (mean -0.07; controls 0 of 18).
TIGQVMNYESRNKNSVA | QTSTREE | QDYDRLPLS: 1.86, 1.64, 2.44, 1.55, 1.75, 2.00 (mean 1.87; controls 0 of 18).
HISMSMNWLTRNKNSIA | EESTRED | QQYDRLPLS: 0.74, 0.70, 0.74, 0.58, 0.41, 0.84 (mean 0.67; controls 1 of 18).
KLSQSVNMTGKNKNSVA | ELSFREK | QQYERLPLA: ND, 1.67, ND, -0.66, ND, ND (mean 0.51; controls 0 of 18).
TLSQLMDMTSRNENSVA | DLTTRGN | QQYHRLPLS: ND, ND, ND, 2.61, ND, ND (controls 0 of 18).
KLSIFHQIESINKSNVA | EMVTRES | QQYDRLPLS: 1.78, ND, ND, ND, ND, ND (controls 0 of 18).
KLIQSVAMLSRNKNSIA | DNSTRES | QQYHRLPLS: 1.52, 1.12, 1.28, 0.56, 1.50, 1.25 (mean 1.20; controls 0 of 18).
KIMQSLNYMQFNVSNVA | GQETRER | QSYHRLPLS: 1.92, 1.71, 2.87, 2.16, 2.45, 2.87 (mean 2.33; controls 2 of 18).
KLYQATAMTSRMRNNVA | DLNERER | QQYFRLPLS: ND, 1.98, ND, ND, 2.41, ND (mean 2.19; controls 0 of 18).
KISYMGEHFSSNHSAIA | QASTREQ | QQYHRLPIS: 1.66, 1.89, 1.07, 1.76, 2.19, 2.35 (mean 1.82; controls 0 of 18).
KLSMSMLLESFHKNNVA | ENSTREE | QHYHRLPLS: ND, ND, ND, ND, ND, ND (controls 0 of 18).
KIGQQVTYESTNKNAIA | QMTTRES | QQYHRLPLS: 0.90, 1.02, 0.38, -0.30, 0.59, 0.44 (mean 0.51; controls 0 of 18).
KLSQSVNMTGKNKNSVA | ELSFRES | QQYERLPLS: ND, ND, ND, ND, 2.65, ND (controls 1 of 18).
KLSQVTHSEHRMKNSIA | EMVTREK | QQYDRLPLS: 1.22, 0.78, 0.71, 1.10, 0.79, 1.00 (mean 0.93; controls 1 of 18).
KIAGSMAMTSHHINSVA | QSTTREE | QQYNRLPLS: 0.61, 0.58, 0.24, 0.68, 0.60, 1.06 (mean 0.63; controls 2 of 18).
KISMLYNFAQTNKNSIA | EMTTREA | QHYHRLPLS: 0.71, 0.59, 0.42, 0.21, 0.96, 0.56 (mean 0.57; controls 2 of 18).
KLIQSVAMSSRNKDSIA | DNSTRED | QQYHRLPLS: 0.61, 0.86, 0.64, 1.27, 1.19, 0.66 (mean 0.87; controls 0 of 18).
IISQSFLGEYHNINSVA | QTSERGS | QQYDRLPLS: 0.72, 0.53, 0.41, 0.46, 0.35, 0.58 (mean 0.51; controls 0 of 18).
KIMQSLNYEQFNVSNVA | GQETREE | QSYHRLPLS: 3.13, 2.76, 3.35, 2.29, 3.08, 2.38 (mean 2.83; controls 1 of 18).
TVSQVHEMLSHNKNSVA | DMNTREE | QQYDRLPLS: 0.32, -0.25, 1.00, 0.06, 0.24, 1.06 (mean 0.41; controls 0 of 18).
MISDLTMYGSRNKNSVA | DLSKRGS | QQYHRLPLS: 0.13, 0.11, 0.00, -0.18, -0.09, 0.03 (mean 0.00; controls 4 of 18).
KIAQLVNFLGKNKNSVA | QMSTREE | QQYDRLPLS: 0.70, 0.55, 1.20, 0.92, 1.18, 1.43 (mean 1.00; controls 0 of 18).
MISDLTMYGSRLKNSVA | DLSTRGS | QQYHRLPLS: 0.84, 0.31, 0.39, 0.50, 0.97, 0.88 (mean 0.65; controls 0 of 18).

The last 3 entries again:

{"CDR-L1": "MISDLTMYGSRNKNSVA", "CDR-L2": "DLSKRGS", "CDR-L3": "QQYHRLPLS", "log10 Kd, replicates": "0.13, 0.11, 0.00, -0.18, -0.09, 0.03", "mean, log10 nM": "0.00", "control signals": "4/18"}
{"CDR-L1": "KIAQLVNFLGKNKNSVA", "CDR-L2": "QMSTREE", "CDR-L3": "QQYDRLPLS", "log10 Kd, replicates": "0.70, 0.55, 1.20, 0.92, 1.18, 1.43", "mean, log10 nM": "1.00", "control signals": "0/18"}
{"CDR-L1": "MISDLTMYGSRLKNSVA", "CDR-L2": "DLSTRGS", "CDR-L3": "QQYHRLPLS", "log10 Kd, replicates": "0.84, 0.31, 0.39, 0.50, 0.97, 0.88", "mean, log10 nM": "0.65", "control signals": "0/18"}

The range of this assay differs from that of the first round, and the authors advise against merging the two.
The authors averaged sequences with at least three values out of six and counted those with two or fewer as poor binders.

Data: MIT Lincoln Laboratory AlphaSeq set, Li et al. 2023, doi:10.1038/s41467-023-39022-2, as distributed in FLAb.